{
  "source": "paper PMC7607624",
  "about": "(Journal of nuclear medicine : official publication, Society …, 2013)",
  "origin": "cited, not measured here",
  "settings": "in vivo; cited from earlier work",
  "data": [
    {"substance": "18F-FDG", "values": [
      {"measurement": "Organ dose, Adrenals", "value": 13, "unit": "μGy/MBq"},
      {"measurement": "Organ dose, Brain", "value": 19, "unit": "μGy/MBq"},
      {"measurement": "Organ dose, Breasts", "value": 9.2, "unit": "μGy/MBq"},
      {"measurement": "Organ dose, Gallbladder Wall", "value": 14, "unit": "μGy/MBq"},
      {"measurement": "Organ dose, Heart Wall", "value": 60, "unit": "μGy/MBq"},
      {"measurement": "Organ dose, Kidneys", "value": 20, "unit": "μGy/MBq"},
      {"measurement": "Organ dose, Lower Large Intestine Wall", "value": 17, "unit": "μGy/MBq"},
      {"measurement": "Organ dose, Lungs", "value": 17, "unit": "μGy/MBq"},
      {"measurement": "Organ dose, Muscle", "value": 11, "unit": "μGy/MBq"},
      {"measurement": "Organ dose, Ovaries", "value": 17, "unit": "μGy/MBq"},
      {"measurement": "Organ dose, Red Marrow", "value": 13, "unit": "μGy/MBq"},
      {"measurement": "Organ dose, Small Intestine", "value": 14, "unit": "μGy/MBq"},
      {"measurement": "Organ dose, Stomach Wall", "value": 13, "unit": "μGy/MBq"},
      {"measurement": "Organ dose, Testes", "value": 13, "unit": "μGy/MBq"},
      {"measurement": "Organ dose, Upper Large Intestine Wall", "value": 13, "unit": "μGy/MBq"},
      {"measurement": "Organ dose, Urinary Bladder Wall", "value": 190, "unit": "μGy/MBq"}
    ]}
  ]
}
